From publication PMC12196810, “A Dual Bioassay for Evaluation of Embryotoxicity and Acute Toxicity of Common Solvents and Surfactants in Artemia salina” (Toxics, 2025)

Tested on: Artemia salina nauplii
Assay: Brine shrimp lethality test
Conditions: 24 and 48 h, 0.05–5% (w/v)

## sodium xylenesulfonate [SXS]
  toxicity in the lethality test, in words: highly toxic
